## Apparent affinities of Ab-14 variants for a coronavirus HR2 peptide

The target is the same throughout: PDVDLGDISGINAS, from the HR2 region of SARS-CoV-2 spike.

Parent scFv Ab-14: VH joined to VL by a (GGGGS)3 linker. Changes lie in the heavy chain CDRs alone.
VH: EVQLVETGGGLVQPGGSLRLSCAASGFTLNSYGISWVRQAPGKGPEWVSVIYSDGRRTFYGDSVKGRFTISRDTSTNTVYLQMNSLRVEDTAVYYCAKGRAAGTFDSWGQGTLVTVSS
VL: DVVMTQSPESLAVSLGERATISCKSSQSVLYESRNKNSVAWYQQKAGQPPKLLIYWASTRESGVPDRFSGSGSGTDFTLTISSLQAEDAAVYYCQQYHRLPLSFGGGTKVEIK

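Phage display of a naive human antibody library on the peptide gave the parent. AAYL49 was designed without a model: most single CDR substitutions and a random sample of double and triple ones. The scFvs were displayed on barcoded MATa yeast, the peptide on MATalpha yeast. Pairs that bind mate more often; barcode pairs of the diploids are counted by sequencing. A regression on co-assayed BCL2-family reference pairs converts the normalised counts of each replicate to an apparent Kd. Mating was done three times.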

Positions count from residue 1 of the parent VH; F27D puts D in place of F.
Values are log10 of the apparent Kd in nM; lower means stronger binding.
Replicates are averaged; those with no signal do not enter the mean.
"ND" means that the variant was in the library but no mating with the target was seen in that replicate; the authors take this as a sign of poor binding, and no number exists.
Three control strains display no target. For library AAYL49, 15% of the pairings with them gave a signal, with a median of 4.06 and one signal in twenty below 2.83, so weak values seen in few replicates may be background. The control count says in how many pairings with the empty strains this scFv gave a signal, with their mean in brackets.

{"changes": "F27D/S31K/D62C", "log10 Kd (nM) by replicate": "4.04 3.56 ND", "mean log10 Kd (nM)": "3.80", "empty controls": "1 of 9 (4.86)"}
{"changes": "G26R/F59E", "log10 Kd (nM) by replicate": "1.73 1.98 1.84", "mean log10 Kd (nM)": "1.85", "empty controls": "3 of 9 (4.24)"}
{"changes": "I34S/D54H/S63F", "log10 Kd (nM) by replicate": "ND ND ND", "mean log10 Kd (nM)": "ND", "empty controls": "0 of 9"}
{"changes": "F27S/R100G/S107G", "log10 Kd (nM) by replicate": "ND ND ND", "mean log10 Kd (nM)": "ND", "empty controls": "2 of 9 (4.32)"}
{"changes": "T28L/R100K/G103F", "log10 Kd (nM) by replicate": "1.66 1.81 1.74", "mean log10 Kd (nM)": "1.74", "empty controls": "1 of 9 (3.43)"}
{"changes": "Y32W/S35I/A102P", "log10 Kd (nM) by replicate": "ND ND ND", "mean log10 Kd (nM)": "ND", "empty controls": "1 of 9 (4.31)"}
{"changes": "G26I/F105S/D106Y", "log10 Kd (nM) by replicate": "ND ND ND", "mean log10 Kd (nM)": "ND", "empty controls": "1 of 9 (3.13)"}
{"changes": "G55D/R56Q/A101R", "log10 Kd (nM) by replicate": "ND ND ND", "mean log10 Kd (nM)": "ND", "empty controls": "0 of 9"}
{"changes": "I51A/A102Y/F105G", "log10 Kd (nM) by replicate": "ND ND ND", "mean log10 Kd (nM)": "ND", "empty controls": "1 of 9 (3.75)"}
{"changes": "F27C/G61P/G99L", "log10 Kd (nM) by replicate": "ND ND ND", "mean log10 Kd (nM)": "ND", "empty controls": "7 of 9 (4.32)"}
{"changes": "F27R/I34E/A101N", "log10 Kd (nM) by replicate": "3.18 ND ND", "mean log10 Kd (nM)": "3.18", "empty controls": "0 of 9"}
{"changes": "T28G/G55V/D62T", "log10 Kd (nM) by replicate": "ND ND ND", "mean log10 Kd (nM)": "ND", "empty controls": "3 of 9 (3.91)"}
{"changes": "N30L/V50F/R100P", "log10 Kd (nM) by replicate": "ND ND ND", "mean log10 Kd (nM)": "ND", "empty controls": "0 of 9"}
{"changes": "G55H/R57M/R100M", "log10 Kd (nM) by replicate": "ND ND ND", "mean log10 Kd (nM)": "ND", "empty controls": "0 of 9"}
{"changes": "T58V/G61V/R100E", "log10 Kd (nM) by replicate": "0.77 0.96 0.83", "mean log10 Kd (nM)": "0.85", "empty controls": "3 of 9 (4.91)"}
{"changes": "D54K/G55Q", "log10 Kd (nM) by replicate": "ND ND ND", "mean log10 Kd (nM)": "ND", "empty controls": "0 of 9"}
{"changes": "G26P/Y32V/Y60M", "log10 Kd (nM) by replicate": "ND ND ND", "mean log10 Kd (nM)": "ND", "empty controls": "2 of 9 (3.35)"}
{"changes": "F27W/R56K/R57L", "log10 Kd (nM) by replicate": "ND ND ND", "mean log10 Kd (nM)": "ND", "empty controls": "1 of 9 (2.54)"}
{"changes": "G33S/S35T/S63Q", "log10 Kd (nM) by replicate": "ND ND ND", "mean log10 Kd (nM)": "ND", "empty controls": "0 of 9"}
{"changes": "T58K/G99I/T104S", "log10 Kd (nM) by replicate": "ND ND ND", "mean log10 Kd (nM)": "ND", "empty controls": "0 of 9"}
{"changes": "G26A/I34F/V64T", "log10 Kd (nM) by replicate": "ND ND ND", "mean log10 Kd (nM)": "ND", "empty controls": "0 of 9"}
{"changes": "G33S/S35G/S107V", "log10 Kd (nM) by replicate": "4.69 3.17 ND", "mean log10 Kd (nM)": "3.93", "empty controls": "2 of 9 (4.99)"}
{"changes": "G26D/G33M/D54N", "log10 Kd (nM) by replicate": "4.25 3.42 5.86", "mean log10 Kd (nM)": "4.51", "empty controls": "3 of 9 (3.71)"}
{"changes": "S35C/D54K/Y60L", "log10 Kd (nM) by replicate": "ND ND ND", "mean log10 Kd (nM)": "ND", "empty controls": "0 of 9"}
{"changes": "N30I/I51T/A101C", "log10 Kd (nM) by replicate": "ND ND ND", "mean log10 Kd (nM)": "ND", "empty controls": "1 of 9 (3.51)"}

Extract of 3 entries:

{"changes": "G55H/R57M/R100M", "log10 Kd (nM) by replicate": "ND ND ND", "mean log10 Kd (nM)": "ND", "empty controls": "0 of 9"}
{"changes": "G26R/F59E", "log10 Kd (nM) by replicate": "1.73 1.98 1.84", "mean log10 Kd (nM)": "1.85", "empty controls": "3 of 9 (4.24)"}
{"changes": "F27W/R56K/R57L", "log10 Kd (nM) by replicate": "ND ND ND", "mean log10 Kd (nM)": "ND", "empty controls": "1 of 9 (2.54)"}

From the AlphaSeq antibody data of Engelhart et al. 2022 (doi:10.1038/s41597-022-01779-4), copy in the FLAb collection.